# AlphaSeq binding of Ab-14 heavy chain variants to a spike HR2 peptide

Target peptide (SARS-CoV-2 spike, HR2 region): PDVDLGDISGINAS

Ab-14 is the parent antibody, in scFv form: VH, then the linker GGGGSGGGGSGGGGS, then VL. The light chain is unchanged in all variants.
VH: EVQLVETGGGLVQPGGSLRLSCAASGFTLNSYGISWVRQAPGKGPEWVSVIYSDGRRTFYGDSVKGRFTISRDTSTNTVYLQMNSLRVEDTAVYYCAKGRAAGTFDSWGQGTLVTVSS
VL: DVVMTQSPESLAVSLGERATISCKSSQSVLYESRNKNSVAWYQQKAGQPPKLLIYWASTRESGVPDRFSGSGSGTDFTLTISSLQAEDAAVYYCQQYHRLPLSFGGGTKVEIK

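Phage display of a naive human antibody library on the peptide gave the parent. Variants in AAYL49 differ from the parent at up to three CDR positions; double and triple changes were sampled at random. In AlphaSeq, yeast of one mating type display the scFv and yeast of the other type display the target. Binding brings cells together so that they mate, and sequencing counts the barcode pairs among the diploids. Each replicate has its own calibration line, from reference interactions of the BCL2 family. Each pool was mated in three replicate cultures.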

Positions count from residue 1 of the parent VH; N30Q puts Q in place of N. Every variant below is changed at N30 of the VH (sequential numbering). Each Kd is an estimate from the mating assay, the geometric mean of the replicates in which the pair was seen; lower is stronger. A pair that was not seen in any replicate is written "not detected"; this usually means weak binding, but a binder can also be missed. Entries are sorted by rising average, undetected variants last.

changes	apparent Kd	seen in
N30Q/A101N	5.5 nM	3/3
N30R	24 nM	3/3
N30Q/R56C/S107L	37 nM	3/3
N30Q/I34M/A102V	42 nM	2/3
N30G/R100V/A102S	120 nM	3/3
N30G/S53F	140 nM	3/3
N30Y/R100A/S107H	210 nM	2/3
N30L/G61N/D62M	600 nM	1/3
N30P	730 nM	3/3
N30V/S35M	890 nM	1/3
N30L/V50E/T104P	1.3 µM	1/3
N30T/S53F/D54Y	1.4 µM	1/3
N30I/R56E	1.8 µM	3/3
T28E/N30I/S63Y	2.2 µM	3/3
N30E/F59L/F105W	2.3 µM	1/3
N30W/D62T	3.5 µM	2/3
N30E/S63Q/A102L	4.0 µM	1/3
N30V/Y32T/D106Y	4.3 µM	1/3
N30P/S35K/D54A	4.4 µM	1/3
N30Q/V50W	4.5 µM	1/3
T28S/N30A/S35F	4.8 µM	1/3
N30F/D54A/F105K	4.9 µM	1/3
N30Q/T58Y/S63P	6.2 µM	3/3
T28M/N30L	8.4 µM	3/3
N30L/D54A/R56N	8.4 µM	1/3
T28K/N30H/T104E	9.2 µM	2/3
N30S/T104M	11 µM	1/3
N30M/Y32A/F105Y	11 µM	1/3
N30G/Y60W/F105T	11 µM	2/3
N30P/S63I/V64K	12 µM	1/3
N30W/G55L/S107W	12 µM	2/3
N30W/V50L/S107A	16 µM	1/3
N30H/Y60N/V64F	19 µM	1/3
F27W/N30W/I34M	23 µM	1/3
N30Q/Y52M	24 µM	1/3
N30L/K65I/G103L	28 µM	3/3
N30C/I34A/D106E	33 µM	3/3
N30F/V50E/Y52R	34 µM	2/3
N30P/G55W/T104G	37 µM	1/3
N30P/Y32V/D106R	56 µM	2/3
N30F/Y60G/G103L	78 µM	1/3
N30K/I34C/V50T	120 µM	2/3
N30G/S63W/D106F	130 µM	2/3
N30D/R100K/G103Y	not detected	0/3
L29D/N30Q/A101E	not detected	0/3
N30G/Y60M/A101V	not detected	0/3
N30C/G61K/G99K	not detected	0/3
N30I/V50C/R57E	not detected	0/3
N30H/D54V/V64W	not detected	0/3
N30Y/Y60V	not detected	0/3
F27W/N30T/K65H	not detected	0/3
N30S/R56N/S63G	not detected	0/3
G26V/N30W/A102I	not detected	0/3
N30A/A102C/F105K	not detected	0/3
N30D/R57K	not detected	0/3
N30G/Y52M	not detected	0/3
N30G/A102L/T104M	not detected	0/3
N30L/D54N/G55P	not detected	0/3
N30M/D54K/T104L	not detected	0/3
F27W/N30L/S107T	not detected	0/3
N30Q/Y52R/T104Q	not detected	0/3
N30G/S31M/G61H	not detected	0/3
N30Q/G99T/R100W	not detected	0/3
N30L/G33F/G99Q	not detected	0/3
N30G/S63V/F105C	not detected	0/3
N30A/F59T/S63K	not detected	0/3
N30V/T58N/V64A	not detected	0/3
G26A/N30R/S63W	not detected	0/3
T28S/N30T/D106I	not detected	0/3
N30H/V64K/K65S	not detected	0/3
N30R/Y32M	not detected	0/3
N30R/F59R/S107H	not detected	0/3

The opening 10 entries, copied out:

changes	apparent Kd	seen in
N30Q/A101N	5.5 nM	3/3
N30R	24 nM	3/3
N30Q/R56C/S107L	37 nM	3/3
N30Q/I34M/A102V	42 nM	2/3
N30G/R100V/A102S	120 nM	3/3
N30G/S53F	140 nM	3/3
N30Y/R100A/S107H	210 nM	2/3
N30L/G61N/D62M	600 nM	1/3
N30P	730 nM	3/3
N30V/S35M	890 nM	1/3

As a blank, each scFv also met three strains without target: over library AAYL49, 15% of these pairings were detected, typically at 11 µM and seldom below 680 nM.

Data: MIT Lincoln Laboratory AlphaSeq set, Engelhart et al. 2022, doi:10.1038/s41597-022-01779-4, as distributed in FLAb.